The experiment deals with human mu receptor (Homo sapiens, UniProt P35372). In kind it is cell-based. To be noted: 10 μM, live confocal imaging over 10 min.

Sequences of proteins named here, by UniProt entry; tags and fusion partners are left off.
UniProt P35372, whole entry: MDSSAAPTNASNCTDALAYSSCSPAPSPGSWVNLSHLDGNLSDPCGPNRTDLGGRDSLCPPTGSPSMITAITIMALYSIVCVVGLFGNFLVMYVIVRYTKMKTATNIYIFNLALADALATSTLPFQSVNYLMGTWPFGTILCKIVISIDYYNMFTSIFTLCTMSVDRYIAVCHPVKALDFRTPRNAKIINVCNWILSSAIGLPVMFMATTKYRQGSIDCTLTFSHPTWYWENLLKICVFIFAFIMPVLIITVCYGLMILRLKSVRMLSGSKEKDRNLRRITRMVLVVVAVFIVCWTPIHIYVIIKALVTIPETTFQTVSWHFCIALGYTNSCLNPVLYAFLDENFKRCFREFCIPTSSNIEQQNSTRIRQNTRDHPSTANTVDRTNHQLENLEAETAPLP

As for DAMGO, the “βarr2 recruitment (qualitative)” value was “robust recruitment of βarr2”.

Source of the values: publication PMC4552603 (Pharmacology, biochemistry, and behavior, 2015).
